According to PubChem BioAssay (Tox21):
Only a part is listed here, and it is no random draw. Inconclusive results are not listed. Calls of active or inactive are those of the source. Unless noted, calls follow the shape of the dose curve; as a rule, active = well fitted curve in the direction sought with a large enough effect in the repeat runs; inconclusive = weak or mixed curves; inactive = no such curve, though single readings can be large; an effect the other way counts as inactive or inconclusive.

How the values were obtained:
[1] = qHTS assay for small molecules that induce genotoxicity in human embryonic kidney cells expressing luciferase-tagged ATAD5 - cell viability (AID 651634; calls by dose curve; also: potency is read from the fitted curve at half-maximal effect; nearly all actives have a fitted effect of over 25% in size); conditions: HEK293T ATAD5-luc cells viability, CellTiter-Fluor, 15.5 h
Summary of the method: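 Cytotoxicity counter-readout: after 15.5 hr compound treatment at 37C, live-cell protease activity in ATAD5-luciferase HEK293T cells measured by CellTiter-Fluor fluorescence, 30 min development at 37C.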

[2] = qHTS assay to identify small molecule antagonists of the androgen receptor (AR) signaling pathway using the MDA cell line - cell viability counter screen (AID 743041; also: potency is read from the fitted curve at half-maximal effect; nearly all actives have a fitted effect of over 45% in size); conditions: MDA-kb2 viability, CellTiter-Fluor, 16 h; cells co-treated with R1881 androgen agonist
Summary of the method: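 Compound exposure lasted 16 h at 37C in MDA-kb2 AR-luc cells stimulated with R1881. Protease-based CellTiter-Fluor reagent was applied for the final 30 min and fluorescence measured.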

[3] = qHTS assay to identify aromatase inhibitors - cell viability counter screen (AID 743084); conditions: MCF-7 aro ERE viability, CellTiter-Fluor, 24 h; series mostly up to 70.3 µM;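 also: cells stimulated with testosterone during compound exposure; potency is read from the fitted curve at half-maximal effect; nearly all actives have a fitted effect of over 55% in size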
[4] = target: Nuclear receptor ROR-gamma (Homo sapiens) (UniProt P51449); experiment: qHTS assay to identify small molecule antagonists of the retinoid-related orphan receptor gamma (ROR-gamma) signaling pathway (AID 1159521; also: potency is read from the fitted curve at half-maximal effect; nearly all actives have a fitted effect of over 50% in size); conditions: Tet-on RORgamma CHO cells, RORE-luciferase, 16 h
[5] = qHTS assay to identify small molecule antagonists of the estrogen related receptor (ERR) signaling pathway from Tox21 library - cell viability counter screen (AID 1224834); conditions: ERR reporter cells viability, CellTiter-Fluor, 17.5 h; series mostly up to 92.4 µM; also: potency is read from the fitted curve at half-maximal effect; nearly all actives have a fitted effect of over 30% in size
Summary of the method: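 CellTiter-Fluor fluorescence, read after 30 min at 37 C, measures viability of ERR cells. Cells plated at 2,000/well and incubated 6 h before pin-tool compound addition, then exposed 17.5 hours at 37 C.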

[6] = qHTS assay to identify small molecule antagonists of the estrogen related receptor signaling pathway with the pleiotropic PPARgamma coactivator (PGC) from Tox21 10K library (AID 1224841; call rule not given here; also: potency is read from the fitted curve at half-maximal effect; actives are mostly falling curves and most rising ones were filed inactive; nearly all actives have a fitted effect of over 50% in size); conditions: PGC/ERR reporter cell line, ONE-Glo luciferase, 18 h
[7] = qHTS assay to identify small molecule antagonists of the estrogen related receptor (ERR) signaling pathway from Tox21 library (AID 1224848); conditions: ERR reporter cell line, luciferase antagonist mode, 18 h; also: potency is read from the fitted curve at half-maximal effect; nearly all actives have a fitted effect of over 50% in size
Summary of the method: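 Quantitative high-throughput format: ERR reporter cells (2,000/well) pre-incubated 6 h, treated 18 h at 37 C with compounds in DMSO alongside positive and negative controls, then read by ONE-Glo luminescence.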

[8] = qHTS RealTime-Glo MT Cell Viability Assay in HEK293 cells - 32 hour (AID 1224868); conditions: RealTime-Glo luminescence; series mostly up to 76.8 µM; also: top concentration of the series differs between compounds; nearly all actives have a fitted effect of over 50% in size
Summary of the method: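 Reads taken at 0, 8, 16, 24, 32 and 40 h from the same wells. HEK293 cells (600/well) carried RealTime-Glo reagents from seeding, with compound added after a 5 h settle at 37 C.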

[9] = qHTS assay to identify small molecule agonists of the sonic hedgehog signaling (Shh) pathway - cell viability counter screen (AID 1259366); conditions: NIH/3T3 Gli1-Luc viability, CellTiter-Fluor, 24 h
Summary of the method: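 Stable Gli1-Luc NIH/3T3 clone, 2,000 cells/well. Compound exposure 24hr at 37C. Read-out: CellTiter-Fluor fluorescence.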

[10] = qHTS assay to identify small molecule antagonists of the sonic hedgehog signaling (Shh) pathway - cell viability counter screen (AID 1259367); conditions: NIH/3T3 Gli1-Luc viability, CellTiter-Fluor, 24 h; also: potency is read from the fitted curve at half-maximal effect; nearly all actives have a fitted effect of over 55% in size
Summary of the method: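 Tox21 library chemicals were tested on a Gli1-Luc NIH/3T3 clone (2,000 cells/well) stimulated by conditioned medium; viability was quantified as fluorescence from CellTiter-Fluor reagent added at 23 hr.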

[11] = qHTS assay to identify small molecule agonists of the androgen receptor (AR) signaling pathway in the presence of an antagonist - cell viability counter screen (AID 1259379); conditions: MDA-kb2 viability, CellTiter-Fluor, 16 h; also: potency is read from the fitted curve at half-maximal effect; nearly all actives have a fitted effect of over 25% in size
Summary of the method: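 Cytotoxicity counter-screen run in the same wells as the nilutamide-challenged (3.0 µM final) AR agonist assay in MDA-kb2 cells. Compounds tested at 15 concentrations for 16 h, 37 °C without CO2; CellTiter-Fluor fluorescence read.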

[12] = qHTS assay to identify small molecule agonists of the estrogen receptor alpha (ER-alpha) signaling pathway in the presence of an antagonist - cell viability counter screen (AID 1259386); conditions: VM7Luc4E2 viability, CellTiter-Fluor fluorescence, 22 h; series mostly up to 92.4 µM; also: potency is read from the fitted curve at half-maximal effect; nearly all actives have a fitted effect of over 30% in size
Summary of the method: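 Compounds tested at 15 concentrations for 22 h at 37C alongside 10.0nM (final) ICI-182,780 antagonist, in VM7Luc4E2 cells grown in phenol red-free, charcoal-stripped medium. Viability read by CellTiter-Fluor fluorescence after 1 h reagent incubation.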

[13] = Human pregnane X receptor (PXR) small molecule agonists, qHTS cell viability counter screen (AID 1346977); conditions: PXR-Luc HepG2 viability, CellTiter-Fluor, 24 h
Summary of the method: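 HepG2 cells stably carrying the PXR-Luc reporter are cultured with 5% charcoal-stripped FBS and treated with compounds for 24hr. CellTiter-Fluor is added at 23hr and fluorescence is read after 1hr.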

[14] = Caspase-3/7 induction in HepG2 cells by small molecules, qHTS cell viability counter screen (AID 1346981); conditions: CellTiter-Fluor fluorescence, 17 h; also: potency is read from the fitted curve at half-maximal effect; nearly all actives have a fitted effect of over 30% in size
Summary of the method: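 CellTiter-Fluor fluorescence measured viability in the same wells used for Caspase-Glo 3/7. HepG2 (wild type) at 2,000 cells/well were pre-incubated 5 hr, dosed, and given reagent at 16 hr, with 1 hr further at 37C.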

Measured: Potency

Nc1cc([N+](=O)[O-])cc([N+](=O)[O-])c1O
active: [1] 27.9 µM | [2] 62.5 µM | [3] 27.9 µM | [4] 27.9 µM | [5] 31.3 µM | [6] 55.7 µM | [7] 49.6 µM | [9] 27.9 µM | [10] 31.3 µM | [11] 27.9 µM | [12] 31.3 µM | [13] 27.9 µM | [14] 27.9 µM
inactive: [8]
